{"source": "paper PMC6338342", "about": "(Journal of chromatography. B, Analytical technologies in …, 2016)", "key": {"[1]": {"conditions": "rat serum, oral XLGB extract 3 g/kg, n = 6"}, "[2]": {"conditions": "rat serum, oral XLGB extract 6 g/kg, n = 6"}, "[3]": {"conditions": "rat serum, oral XLGB extract 12 g/kg, n = 6"}}, "note": "Read-outs that look alike come from different tables or passages of the source."}
{"compound": "icariside II", "values": [{"measurement": "serum concentration (analytical signal) relative to LLOQ", "setting": "rat serum, oral XLGB 3 g/kg", "value": "slightly higher than the corresponding LLOQs"}, {"measurement": "AUC0-t", "setting": "[1]", "value": "5.52 ± 3.08", "unit": "ng·h/mL"}, {"measurement": "AUC0–∞", "setting": "[1]", "value": "17.00 ± 9.29", "unit": "ng·h/mL"}, {"measurement": "Cmax", "setting": "[1]", "value": "3.74 ± 0.85", "unit": "ng/mL"}, {"measurement": "MRT0–t", "setting": "[1]", "value": "2.40 ± 1.54", "unit": "h"}, {"measurement": "MRT0–∞", "setting": "[1]", "value": "16.51 ± 12.48", "unit": "h"}, {"measurement": "Tmax", "setting": "[1]", "value": "0.50 ± 0", "unit": "h"}, {"measurement": "t1/2", "setting": "[1]", "value": "12.23 ± 9.22", "unit": "h"}, {"measurement": "AUC0-t", "setting": "[2]", "value": "85.46 ± 15.26", "unit": "ng·h/mL"}, {"measurement": "AUC0–∞", "setting": "[2]", "value": "94.10 ± 16.91", "unit": "ng·h/mL"}, {"measurement": "Cmax", "setting": "[2]", "value": "23.64 ± 2.84", "unit": "ng/mL"}, {"measurement": "MRT0–t", "setting": "[2]", "value": "6.45 ± 3.98", "unit": "h"}, {"measurement": "MRT0–∞", "setting": "[2]", "value": "10.51 ± 6.10", "unit": "h"}, {"measurement": "Tmax", "setting": "[2]", "value": "0.67 ± 0.41", "unit": "h"}, {"measurement": "t1/2", "setting": "[2]", "value": "9.93 ± 8.71", "unit": "h"}, {"measurement": "AUC0-t", "setting": "[3]", "value": "280.72 ± 40.81", "unit": "ng·h/mL"}, {"measurement": "AUC0–∞", "setting": "[3]", "value": "293.14 ± 38.79", "unit": "ng·h/mL"}, {"measurement": "Cmax", "setting": "[3]", "value": "68.11 ± 12.99", "unit": "ng/mL"}, {"measurement": "MRT0–t", "setting": "[3]", "value": "5.33 ± 0.84", "unit": "h"}, {"measurement": "MRT0–∞", "setting": "[3]", "value": "7.36 ± 1.41", "unit": "h"}, {"measurement": "Tmax", "setting": "[3]", "value": "1.83 ± 0.26", "unit": "h"}, {"measurement": "t1/2", "setting": "[3]", "value": "9.90 ± 5.47", "unit": "h"}]}
{"compound": "O=c1ccc2cc3ccoc3cc2o1", "note": "[Psoralen, psoralen]", "values": [{"measurement": "Tmax", "setting": "male, Sprague-Dawley, rat, serum, po, 12 g/kg", "value": "1.83 ± 0.41", "unit": "h"}]}
